In PubChem BioAssay AID374 (University of Pittsburgh Molecular Library Screening Center, 2006):
The entries are a selection whose mix differs from that of the whole data set. Calls of active or inactive are those of the source.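 The calls were made as follows: active = inhibition above about 50% (limit read from the data); inconclusive = inhibition over screen mean plus 3 SD, below that limit; inactive = the rest.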

Sequences of proteins named here, by UniProt entry; tags and fusion partners are left off.
UniProt P28562, whole entry: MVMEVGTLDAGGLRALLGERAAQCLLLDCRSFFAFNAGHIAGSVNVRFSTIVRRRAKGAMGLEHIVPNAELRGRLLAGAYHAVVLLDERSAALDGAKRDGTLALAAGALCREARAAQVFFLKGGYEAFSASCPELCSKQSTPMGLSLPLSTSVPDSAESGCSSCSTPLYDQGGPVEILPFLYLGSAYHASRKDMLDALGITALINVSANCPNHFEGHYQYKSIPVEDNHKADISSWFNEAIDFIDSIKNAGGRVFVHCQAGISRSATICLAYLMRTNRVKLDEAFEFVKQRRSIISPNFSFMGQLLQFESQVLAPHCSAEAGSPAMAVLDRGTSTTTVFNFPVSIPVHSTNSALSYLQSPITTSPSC

Molecular target: Dual specificity protein phosphatase 1 (Homo sapiens) (UniProt P28562)
Assay: MKP-1 phosphatase inhibitors, primary screen, biochemical, in vitro (AID 374);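 also: 0% = DMSO max control wells and 100% = wells with enzyme stopped by NaOH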
Conditions: recombinant MKP-1, OMFP hydrolysis fluorescence; hits give high values;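 compounds tested at a single concentration somewhere between 10 and 100 µM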

Compound	inhibition
N/C(=N\O)c1c(N)no[n+]1[O-]	inactive: -11.5%
Fc1ccccc1NC1CCN(Cc2ccccc2)CC1	inactive: 6.08%
CCC(CO)(C(=O)OC1CN2CCC1CC2)c1ccccc1 (configuration not stated)	inactive: 6.42%
CCOc1ncccc1C(=O)NCC1(N2CCOCC2)CCCCC1	inactive: 1.48%
O=C(OC1CN2CCC1CC2)C1c2ccccc2Oc2ccccc21 (configuration not stated)	inactive: -5.12%
COc1ccc(NC2CCN(CCc3ccccc3)CC2)c(OC)c1	inactive: -15.2%
N#CC1(Nc2ccccc2)CCN(CCc2ccccc2)CC1	inactive: 4.35%
